Results reported in US6936585B2, “Corticotropin releasing factor 2 receptor agonists” (priority 2002, dated 2005).

Legend:
CRF2R = target: T1, CRF2R (Homo sapiens, UniProt Q13324); experiment: CRF2R agonist activation (EC50 / Emax), called comparative CRF binding; type: cell-based; conditions: for Emax: read-out: CRF2R Emax
T1 sequence (Q13324 1-411): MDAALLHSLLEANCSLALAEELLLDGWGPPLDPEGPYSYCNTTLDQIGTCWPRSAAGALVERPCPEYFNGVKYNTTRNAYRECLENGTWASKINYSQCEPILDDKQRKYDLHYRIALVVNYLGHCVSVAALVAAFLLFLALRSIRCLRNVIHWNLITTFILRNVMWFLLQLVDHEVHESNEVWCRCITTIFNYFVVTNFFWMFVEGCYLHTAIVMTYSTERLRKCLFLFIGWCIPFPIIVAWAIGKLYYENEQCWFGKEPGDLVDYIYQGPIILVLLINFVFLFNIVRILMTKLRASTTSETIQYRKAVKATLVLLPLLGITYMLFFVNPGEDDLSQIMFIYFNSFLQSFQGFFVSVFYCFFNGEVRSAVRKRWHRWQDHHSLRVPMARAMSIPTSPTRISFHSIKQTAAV
From the text: (§1) The pharmacological activity and selectivity of the peptides of present invention can be determined using published test procedures. See, e.g, U.S. patent application Ser. No. 09/799,978 (now issued U.S. Pat. No. 6,670,140). Because CRF2R and CRF1R are homologous proteins, it is expected that a certain proportion of agonists for CRF2R will also function as agonists of CRF1R. As discussed above, activation of CRF1R induces activation of the HPA axis since increased corticosteroid production leads to skeletal muscle atrophy. In most cases in which an increase in muscle mass or function is desired, it is not desirable to activate the HPA axis.
(§2) Cell-based assays include the steps of contacting cells which express CRF1R or CRF2R with a peptide of the present invention or control and measuring activation of the CRFR by measuring the expression or activity of components of the CRFR signal transduction pathways.
(§3) For example, after contact with a peptide of the present invention, lysates of the cells can be prepared and assayed for induction of cAMP. cAMP is induced in response to Gαs activation. Because Gαs is activated by receptors other than CRFR and because a test peptide may be exerting its effect through CRFRs or by another mechanism, two control comparisons are relevant for determining whether the peptide increases levels of cAMP via activation of a CRFR. One control compares the cAMP level of cells contacted with the peptide and the cAMP level of cells contacted with a control compound (i.e., the vehicle in which the peptide is dissolved).
(§4) In one example, cAMP induction is measured with the use of DNA constructs containing the cAMP responsive element linked to any of a variety of reporter genes can be introduced into cells expressing CRFRs. Such reporter genes include, but are not limited to, chloramphenicol acetyltransferase (CAT), luciferase, glucuronide synthetase, growth hormone, fluorescent proteins (e.g., Green Fluorescent Protein), or alkaline phosphatase. Following exposure of the cells to the peptide, the level of reporter gene expression can be quantitated to determine the peptide's ability to increase cAMP levels and thus determine the peptide's ability to activate the CRFR.
(§5) In addition to using cells expressing full length CRFRs, cells can be engineered which express CRFRs containing the ligand binding domain of the receptor coupled to, or physically modified to contain, reporter elements or to interact with signaling proteins. For example, a wild type CRFR or CRFR fragment can be fused to a G-protein resulting in activation of the fused G-protein upon agonist binding to the CRFR portion of the fusion protein. […] In addition, alternative pathways for induction of the CRE reporter could be eliminated to reduce basal levels.

CRF1R = target: T2, CRF1R (Homo sapiens, UniProt P34998); experiment: CRF1R agonist activation (EC50 / Emax), called comparative CRF binding; type: cell-based
T2 sequence (P34998 24-415): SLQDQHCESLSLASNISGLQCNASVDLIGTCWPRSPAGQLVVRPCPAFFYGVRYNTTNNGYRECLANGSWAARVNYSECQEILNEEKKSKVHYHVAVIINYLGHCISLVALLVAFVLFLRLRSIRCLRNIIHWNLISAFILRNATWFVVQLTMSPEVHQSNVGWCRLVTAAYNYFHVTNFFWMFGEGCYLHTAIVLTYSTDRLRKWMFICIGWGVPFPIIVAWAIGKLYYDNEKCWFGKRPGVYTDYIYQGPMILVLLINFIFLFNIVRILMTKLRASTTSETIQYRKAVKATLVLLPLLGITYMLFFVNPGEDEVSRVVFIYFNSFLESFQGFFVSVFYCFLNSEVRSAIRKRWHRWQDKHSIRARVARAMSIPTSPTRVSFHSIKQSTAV
From the text: as §1, §2, §3, §4, §5

SMILES | EC50 (CRF2R) [nM] | Emax (CRF2R) [%] | EC50 (CRF1R; CRF1R EC50) [nM] | Emax (CRF1R; read-out: CRF1R Emax) [%]
CC[C@H](C)[C@H](NC(=O)[C@H](CCCNC(=N)N)NC(=O)[C@H](C)NC(=O)[C@H](CC(C)C)NC(=O)[C@H](CC(C)C)NC(=O)[C@H](CCCNC(=N)N)NC(=O)[C@H](C)NC(=O)[C@H](CC(N)=O)NC(=O)[C@H](CC(N)=O)NC(=O)[C@H](C)NC(=O)[C@H](C)NC(=O)[C@H](CCC(N)=O)NC(=O)[C@H](CCC(N)=O)NC(=O)[C@H](CCCCN)NC(=O)[C@H](CCC(=O)O)NC(=O)[C@H](CCCCN)NC(=O)[C@H](CCC(=O)O)NC(=O)[C@H](CCC(N)=O)NC(=O)[C@H](CCCCN)NC(=O)[C@H](CCC(=O)O)NC(=O)[C@@H](NC(=O)[C@H](CCC(=O)O)NC(=O)[C@@H](NC(=O)[C@@H](NC(=O)[C@H](CCCCN)NC(=O)[C@H](CCCNC(=N)N)NC(=O)[C@H](CC(C)C)NC(=O)[C@H](CC(C)C)NC(=O)[C@H](Cc1ccc(O)cc1)NC(=O)[C@H](Cc1ccc(O)cc1)NC(=O)[C@@H]1CCCN1C(=O)[C@@H](NC(=O)[C@H](CC(=O)O)NC(=O)[C@@H](NC(=O)[C@H](CO)NC(=O)[C@@H](NC(=O)[C@@H]1CCCN1C(=O)[C@@H]1CCCN1C(=O)CNC(=O)[C@@H]1CCC(=O)N1)[C@@H](C)CC)[C@@H](C)CC)C(C)C)C(C)C)[C@@H](C)CC)[C@@H](C)CC)C(N)=O [compound 378] | 14.9 | 100 | ≥ 1000 | 36
CC[C@H](C)[C@H](NC(=O)[C@@H](NC(=O)[C@H](CC(=O)O)NC(=O)[C@H](CC(C)C)NC(=O)[C@H](CC(C)C)NC(=O)[C@H](CC(C)C)NC(=O)[C@H](CCCNC(=N)N)NC(=O)[C@H](CC(N)=O)NC(=O)[C@H](CC(N)=O)NC(=O)[C@H](C)NC(=O)[C@H](C)NC(=O)[C@H](CCC(N)=O)NC(=O)[C@H](CCC(N)=O)NC(=O)[C@H](CCCCN)NC(=O)[C@H](CCC(=O)O)NC(=O)[C@H](CCCCN)NC(=O)[C@H](CCC(=O)O)NC(=O)[C@H](CCC(N)=O)NC(=O)[C@H](CCCCN)NC(=O)[C@H](CCC(=O)O)NC(=O)[C@@H](NC(=O)[C@H](CCC(=O)O)NC(=O)[C@@H](NC(=O)[C@H](CCSC)NC(=O)[C@H](CCCCN)NC(=O)[C@H](CCCNC(=N)N)NC(=O)[C@H](CC(C)C)NC(=O)[C@H](CC(C)C)NC(=O)[C@H](C)NC(=O)[C@@H](NC(=O)[C@@H]1CCCN1C(=O)[C@H](CC(C)C)NC(=O)[C@H](CC(=O)O)NC(=O)[C@@H](NC(=O)[C@H](CO)NC(=O)[C@@H](NC(=O)[C@@H]1CCCN1C(=O)[C@@H]1CCCN1C(=O)CNC(=O)[C@@H]1CCC(=O)N1)[C@@H](C)CC)[C@@H](C)CC)[C@@H](C)O)[C@@H](C)CC)[C@@H](C)CC)[C@@H](C)O)C(N)=O [compound 301] | – | 88.4 | – | –
CC[C@H](C)[C@H](NC(=O)[C@@H](NC(=O)[C@H](CC(=O)O)NC(=O)[C@H](CC(C)C)NC(=O)[C@H](CC(C)C)NC(=O)[C@H](CC(C)C)NC(=O)[C@H](CCCNC(=N)N)NC(=O)[C@H](CC(N)=O)NC(=O)[C@H](CC(N)=O)NC(=O)[C@H](C)NC(=O)[C@H](C)NC(=O)[C@H](CCC(N)=O)NC(=O)[C@H](CCC(N)=O)NC(=O)[C@H](CCCCN)NC(=O)[C@H](CCC(=O)O)NC(=O)[C@H](CCCCN)NC(=O)[C@H](CCC(=O)O)NC(=O)[C@H](CCC(N)=O)NC(=O)[C@H](CCCCN)NC(=O)[C@H](CCC(=O)O)NC(=O)[C@@H](NC(=O)[C@H](CCC(=O)O)NC(=O)[C@@H](NC(=O)[C@H](CCSC)NC(=O)[C@H](CCCCN)NC(=O)[C@H](CCCNC(=N)N)NC(=O)[C@H](CC(C)C)NC(=O)[C@H](CC(C)C)NC(=O)[C@@H](NC(=O)[C@H](CCC(N)=O)NC(=O)[C@@H]1CCCN1C(=O)[C@H](CC(C)C)NC(=O)[C@H](CC(=O)O)NC(=O)[C@@H](NC(=O)[C@H](CO)NC(=O)[C@@H](NC(=O)[C@@H]1CCCN1C(=O)[C@@H]1CCCN1C(=O)CNC(=O)[C@@H]1CCC(=O)N1)[C@@H](C)CC)[C@@H](C)CC)C(C)C)[C@@H](C)CC)[C@@H](C)CC)[C@@H](C)O)C(N)=O [compound 197] | – | 94 | – | –
CC[C@H](C)[C@H](NC(=O)[C@@H](NC(=O)[C@H](CC(=O)O)NC(=O)[C@H](CC(C)C)NC(=O)[C@H](CC(C)C)NC(=O)[C@H](CC(C)C)NC(=O)[C@H](CCCNC(=N)N)NC(=O)[C@H](CC(N)=O)NC(=O)[C@H](CC(N)=O)NC(=O)[C@H](C)NC(=O)[C@H](C)NC(=O)[C@H](CCC(N)=O)NC(=O)[C@H](CCC(N)=O)NC(=O)[C@H](CCCCN)NC(=O)[C@H](CCC(=O)O)NC(=O)[C@H](CCCCN)NC(=O)[C@H](CCC(=O)O)NC(=O)[C@H](CCC(N)=O)NC(=O)[C@H](CCCCN)NC(=O)[C@H](CCC(=O)O)NC(=O)[C@@H](NC(=O)[C@H](CCC(=O)O)NC(=O)[C@@H](NC(=O)[C@H](CCSC)NC(=O)[C@H](CCCCN)NC(=O)[C@H](CCCNC(=N)N)NC(=O)[C@H](CC(C)C)NC(=O)[C@H](CC(C)C)NC(=O)[C@H](CCC(N)=O)NC(=O)[C@H](CCC(N)=O)NC(=O)[C@@H]1CCCN1C(=O)[C@H](CC(C)C)NC(=O)[C@H](CC(=O)O)NC(=O)[C@@H](NC(=O)[C@H](CO)NC(=O)[C@@H](NC(=O)[C@@H]1CCCN1C(=O)[C@@H]1CCCN1C(=O)CNC(=O)[C@@H]1CCC(=O)N1)[C@@H](C)CC)[C@@H](C)CC)[C@@H](C)CC)[C@@H](C)CC)[C@@H](C)O)C(N)=O [compound 198] | – | 100 | – | –
CC[C@H](C)[C@H](NC(=O)[C@H](CCC(=O)O)NC(=O)[C@@H](NC(=O)[C@H](CCSC)NC(=O)[C@H](CCCCN)NC(=O)[C@H](CCCNC(=N)N)NC(=O)[C@H](CC(C)C)NC(=O)[C@H](CC(C)C)NC(=O)[C@H](CCC(N)=O)NC(=O)[C@H](Cc1ccc(O)cc1)NC(=O)[C@@H]1CCCN1C(=O)[C@H](CC(C)C)NC(=O)[C@H](CC(=O)O)NC(=O)[C@@H](NC(=O)[C@H](CO)NC(=O)[C@@H](NC(=O)[C@@H]1CCCN1C(=O)[C@@H]1CCCN1C(=O)CNC(=O)[C@@H]1CCC(=O)N1)[C@@H](C)CC)[C@@H](C)CC)[C@@H](C)CC)C(=O)N[C@@H](CCC(=O)O)C(=O)N[C@@H](CCCCN)C(=O)N[C@@H](CCC(N)=O)C(=O)N[C@@H](CCC(=O)O)C(=O)N[C@@H](CCCCN)C(=O)N[C@@H](CCC(=O)O)C(=O)N[C@@H](CCCCN)C(=O)N[C@@H](CCC(N)=O)C(=O)N[C@@H](CCC(N)=O)C(=O)N[C@@H](C)C(=O)N[C@@H](C)C(=O)N[C@@H](CC(N)=O)C(=O)N[C@@H](CC(N)=O)C(=O)N[C@@H](C)C(=O)N[C@@H](CCCNC(=N)N)C(=O)N[C@@H](CC(C)C)C(=O)N[C@@H](CC(C)C)C(=O)N[C@@H](C)C(=O)N[C@@H](CCCNC(=N)N)C(N)=O [compound 287] | – | 100 | – | –
